Patent US20250152536A1, “DELIVERY OF AN ANTIOXIDANT COMPOUND FOR TREATING SEIZURES, VIRAL INFECTIONS, EXPOSURE TO CHEMICAL WARFARE AGENTS, AND OTHER CONDITIONS” (published 2025)

How the values were obtained:
[1] = PO NAC pharmacokinetics measured by taking blood samples (Example 3)
[2] = Safety and tolerability of intranasal NAC in healthy humans (Example 1)
[3] = test system: GSH levels in the brain; assay: GSH levels with time after intranasal NAC in 3 healthy subjects (Example 2)
[4] = test system: brain glutathione; assay: Intranasal NAC in healthy humans: brain GSH/Cr by MEGA PRESS MR Spectroscopy (Example 1); details: for GSH/Cr, Day 2, 1-hour post-NAC / GSH/Cr, Day 2, 2-hours post-NAC: Study Period 1, 1 ml each nostril, mucosal atomization device; for GSH/Cr, Day 2, 1-hour post-NAC: 1 hour after intranasal 20% solution; for GSH/Cr, Day 2, 2-hours post-NAC: 2 hours after intranasal 20% solution

CC(=O)N[C@@H](CS)C(=O)O
AUC0-10 [1]: 1220 ng·h/mL
Cmax [1]: 598 ng/mL
Tmax [1]: 40.2 min
adverse events ([2]; 6 healthy subjects, intranasal): no adverse events were reported
side-effects ([2]; 6 healthy subjects, intranasal): No significant side-effects
subjects reporting very mild transient nausea ([2]; 6 subjects, intranasal): 2
subjects voicing complaints about the NAC odor ([2]; intranasal): 5 of 6
complaints of NAC fluid into the throat ([2]; mucosal atomizer (Study Period 1)): all three subjects complained
complaints of NAC fluid into the throat ([2]; multi-dose pump (Study Period 2)): not found
GSH levels ([3]; 12 hours post-NAC administration): still significantly elevated
GSH levels ([3]; at 24 hours): return to baseline
GSH/Cr, Day 2, 1-hour post-NAC ([4]; person one): 0.059
GSH/Cr, Day 2, 2-hours post-NAC ([4]; person one): 0.052
GSH/Cr, Day 2, 1-hour post-NAC ([4]; person three): 0.031
GSH/Cr, Day 2, 2-hours post-NAC ([4]; person three): 0.048
GSH/Cr, Day 2, 1-hour post-NAC ([4]; person two): 0.037
GSH/Cr, Day 2, 2-hours post-NAC ([4]; person two): 0.035
time for which increased brain GSH/Cr levels are maintained ([4]; Study Period 2): at least 4 hrs
brain GSH levels above baseline ([4]; at 4 hours, FIG. 8): 35%
time of peak in levels ([4]; combined across all subjects): 1 to 2 h
brain GSH as measured by MR spectroscopy ([4]; whole study): statistically significant increase
